Assay results reported in ChEMBL document CHEMBL5725512, “Fused bicyclic 1,2,4-triazine compounds as TAM inhibitors” (2017).

What follows are compounds tested against T1, Phosphatidylinositol 4,5-bisphosphate 3-kinase catalytic subunit delta isoform (Homo sapiens, UniProt O00329) (assay: PI3K Delta Assay: In some embodiments, the PI3Kδ inhibitor is selective. By ¿selective¿ is meant that the compound binds to or inhibits a kinase with greater affinity or potency, respectively, compared to at least one other kinase. In some embodiments, the PI3Kδ inhibitors are selective inhibitors of PI3Kδ (e.g., over PI3Kα, PI3Kβ and PI3Kγ). In some embodiments, selectivity can be at least about 2-fold, 5-fold, 10-fold, at least about 20-fold, at least about 50-fold, at least about 100-fold, at least about 200-fold, at least about 500-fold or at least about 1000-fold. Selectivity can be measured by methods routine in the art. In some embodiments, selectivity can be tested at the Km ATP concentration of each enzyme. In some embodiments, the selectivity of compounds described herein can be determined by cellular assays associated with particular PI3K kinase activity.).
T1 sequence (O00329 whole entry): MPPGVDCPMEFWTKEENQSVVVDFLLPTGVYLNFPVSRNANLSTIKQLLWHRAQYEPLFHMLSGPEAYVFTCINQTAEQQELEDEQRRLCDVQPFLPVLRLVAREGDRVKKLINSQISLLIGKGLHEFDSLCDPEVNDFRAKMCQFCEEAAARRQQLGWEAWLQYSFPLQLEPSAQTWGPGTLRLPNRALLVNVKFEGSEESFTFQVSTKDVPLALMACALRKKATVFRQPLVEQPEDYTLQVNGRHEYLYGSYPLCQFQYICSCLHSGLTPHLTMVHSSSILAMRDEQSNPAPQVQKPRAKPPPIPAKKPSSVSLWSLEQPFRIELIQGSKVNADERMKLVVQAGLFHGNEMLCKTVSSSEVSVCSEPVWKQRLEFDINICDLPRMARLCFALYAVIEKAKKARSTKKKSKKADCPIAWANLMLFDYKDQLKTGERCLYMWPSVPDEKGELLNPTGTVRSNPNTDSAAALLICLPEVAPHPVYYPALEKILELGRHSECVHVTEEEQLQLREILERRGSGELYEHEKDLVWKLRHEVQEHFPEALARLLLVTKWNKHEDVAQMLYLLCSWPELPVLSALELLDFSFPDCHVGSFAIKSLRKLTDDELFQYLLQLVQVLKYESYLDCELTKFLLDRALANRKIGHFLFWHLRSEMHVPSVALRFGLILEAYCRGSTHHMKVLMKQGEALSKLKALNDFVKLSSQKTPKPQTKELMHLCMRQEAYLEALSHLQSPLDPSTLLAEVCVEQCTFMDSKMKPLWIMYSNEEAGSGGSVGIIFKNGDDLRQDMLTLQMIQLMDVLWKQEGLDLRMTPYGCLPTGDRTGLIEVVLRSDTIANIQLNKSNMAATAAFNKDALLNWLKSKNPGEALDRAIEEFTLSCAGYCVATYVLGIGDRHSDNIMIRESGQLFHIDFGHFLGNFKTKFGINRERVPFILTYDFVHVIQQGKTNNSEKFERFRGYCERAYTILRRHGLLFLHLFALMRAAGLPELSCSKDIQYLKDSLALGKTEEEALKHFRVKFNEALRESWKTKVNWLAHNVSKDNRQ

Row | Structure (SMILES) | IC50 [nM]
1 | Cc1csc2nc([C@H](C)Nc3ncnc4[nH]cnc34)c(-c3cccc(F)c3)c(=O)n12 [DEZAPELISIB] | < 50
2 | Cc1csc2nc(C(C)Nc3ncnc4[nH]cnc34)c(-c3cccc(F)c3)c(=O)n12 (stereo not drawn) | < 50
3 | CC(Nc1ncnc2[nH]cnc12)c1cc(Cl)c2ccnnc2c1-c1cccc(F)c1 (single isomer, unassigned) | < 50
